This passage reports IC50 results from ChEMBL document CHEMBL5725614, “Histone demethylase inhibitors” (2018).

A short description of this experiment: PHF8 Assay: The ability of test compounds to inhibit the activity of PHF8 was determined in 384-well plate format under the following reaction conditions: 3 nM PHF8, 200 nM H3K9me1-biotin labeled peptide (Anaspec cat #64358), 0.5 μM alpha-ketoglutaric acid in assay buffer of 50 mM HEPES, pH7.3, 0.005% Brij35, 0.5 mM TCEP, 0.2 mg/ml BSA, 50 μM sodium L-ascorbate, and 5 μM ammonium iron(II) sulfate. Reaction product was determined quantitatively by TR-FRET after the addition of detection reagent Phycolink Streptavidin-allophycocyanin (Prozyme) and Europium-anti-unmodified-histone H3 lysine 9/lysine27 (H3K9/K27) antibody (PerkinElmer) in the presence of 5 mM EDTA in LANCE detection buffer (PerkinElmer) at a final concentration of 25 nM and 0.5 nM, respectively.The assay reaction was initiated by the following: 2 μl of the mixture of 600 nM H3K9me1-biotin labeled peptide and 1.5 μM alpha-ketoglutaric acid with 2 μl of 11-point serial diluted inhibitor in 3% DMSO were added to each well of the plate, followed by the addition of 2 μl of 9 nM PHF8 to initiate the reaction. The reaction mixture was incubated at room temperature for 15 minutes, and terminated by the addition of 6 μl of 5 mM EDTA in LANCE detection buffer containing 50 nM Phycolink Streptavidin-allophycocyanin and 1 nM Europium-anti-unmodified H3K9/K27 antibody. Plates were read by EnVision Multilabel Reader in TR-FRET mode (excitation at 320 nm, emission at 615 nm and 665 nm) after 1 hour incubation at room temperature. A ratio was calculated (665/615) for each well and fitted to determine inhibition constant (IC50).
The IC50 is the midpoint of a concentration-inhibition curve. Turning to `Cn1cnc(-c2cc(-c3c[nH]nn3)ccn2)c1`, the concentration for half-maximal inhibition (IC50) result was “in the range around 0.55 µM”.
With `FC(F)(F)Cn1cnc(-c2cc3[nH]nnc3cn2)c1` the entry was “in the range around 5.5 µM”; with `Cn1cnc(-c2cc3[nH]nnc3cn2)c1-c1ccc(F)cc1OCC1CC1`, “in the range around 5.5 µM”.
